The list shows a part of the results.
What follows are molecules tested on A. baumannii ATCC 17978 (assay: relative growth (fraction of control); higher = less inhibition). Details: 50 µM.

SMILES | relative growth
S=C1NCN(Cc2ccncc2)CN1 | 0.941
C[C@@H]1CN([C@H](C)CO)S(=O)(=O)c2ccc(C#Cc3ccncc3)cc2O[C@@H]1CN(C)C(=O)C1CCC1 | 1.04
CC1(C)O[C@@H]2C[C@H]3[C@@H]4C[C@H](F)C5=CC(=O)C=C[C@]5(C)[C@H]4[C@@H](O)C[C@]3(C)[C@]2(C(=O)CO)O1 | 0.989
C[C@H]1CN([C@@H](C)CO)C(=O)c2cc(C#CC3(O)CCCC3)cnc2O[C@@H]1CN(C)C(=O)C1CCCCC1 | 0.992
Cc1cc(C)c(C)c(C(=O)O)c1C | 0.879
C[C@H](NC(=O)C[C@H]1C[C@H]2c3cc(NC(=O)Nc4ccc(C(F)(F)F)cc4)ccc3O[C@H]2[C@H](CO)O1)c1ccccc1 | 0.754
CC(C)CCCC(C)[C@H]1CCC2C3CC=C4C[C@@H](O)CC[C@]4(C)C3CC[C@@]21C (stereo partly drawn) | 0.989
CN1CCCN(C[C@@]2(O)CCNC2)CC1 | 1.03
C[C@H](CS)C(=O)N1CCC[C@H]1C(=O)O | 1.03
O=S(=O)([O-])CCS.[Na+] | 1.08
C=CCN1C(C)=N[C@H]2C=C[C@H](NCCCO)[C@H]21 | 1.03
O=C(C[C@@H]1C=C[C@@H](NC(=O)CN2CCOCC2)[C@@H](CO)O1)NCc1cccc(F)c1 | 0.954
CC(C)CCC[C@@H](C)[C@H]1CC[C@H]2[C@@H]3C[C@@H](O)[C@@]4(O)C[C@@H](O)CC[C@]4(C)[C@H]3CC[C@]12C [CHOLESTAN-3beta,5alpha,6beta-TRIOL] | 1.08
O=C(C[C@@H]1C=C[C@@H](NC(=O)Cc2ccccn2)[C@@H](CO)O1)NCCCN1CCOCC1 | 0.961
C=C(NC(=O)C(=C)NC(=O)c1csc(C2=N[C@@H]3c4csc(n4)[C@@H]4NC(=O)c5csc(n5)[C@H](C(C)(O)[C@@H](C)O)NC(=O)[C@H]5CSC(=N5)/C(=C/C)NC(=O)[C@H]([C@@H](C)O)NC(=O)c5csc(n5)[C@]3(CC2)NC(=O)[C@@H](C)NC(=O)C(=C)NC(=O)[C@@H](C)NC(=O)[C@@H]([C@H](C)CC)N[C@H]2C=Cc3c([C@@H](C)O)cc(nc3[C@@H]2O)C(=O)O[C@H]4C)n1)C(N)=O (stereo partly drawn) | 0.949
C[C@H](CO)N1C[C@H](C)[C@@H](CN(C)Cc2ccc3c(c2)OCO3)OCCCC[C@H](C)Oc2ccc(NS(=O)(=O)c3cccs3)cc2C1=O | 1
O=C(C[C@@H]1C=C[C@H](NC(=O)CN2CCOCC2)[C@H](CO)O1)NCCc1ccncc1 | 1.06
COc1ccccc1-c1ccc2c(c1)O[C@@H](CN(C)S(=O)(=O)c1ccccc1)[C@H](C)CN([C@H](C)CO)S2(=O)=O | 1.06
COC(=O)[C@H]1c2cc3c(c(O)c2[C@@H](O[C@@H]2O[C@H](C)[C@H](OC)[C@](C)(OC)[C@@H]2OC)C[C@@]1(C)O)C(=O)c1c(O)cc2c(c1C3=O)O[C@H]1O[C@@]2(C)[C@@H](O)[C@H](N(C)C)[C@@H]1O | 1.05
C[C@H](CO)N1C[C@H](C)[C@H](CN(C)C(=O)Cc2ccncc2)Oc2cc(C3=CCCC3)ccc2S1(=O)=O | 0.86
CCc1nc2ccccc2nc1CC | 0.953

SMILES | relative growth
Nc1ccccc1C(=O)NCCN1CCNC1=O | 1.03
O=C(C[C@H]1C=C[C@H](NS(=O)(=O)c2ccc(F)cc2)[C@H](CO)O1)NCCN1CCCCC1 | 0.924
COc1ccc(CNc2nc(N3CCC[C@H]3CO)ncc2C(=O)NCc2ncccn2)cc1Cl | 1.1
CCNc1nc(SCC(N)=O)nc(N2CCOCC2)n1 | 1.01
COc1ccc(S(=O)(=O)N2C[C@H](O)COC[C@H]3O[C@H](CC(=O)NCc4ccc(Cl)c(Cl)c4)CC[C@@H]32)cc1 | 0.979
C[C@@H]1CN([C@H](C)CO)S(=O)(=O)c2ccc(-c3ccncc3)cc2O[C@H]1CN(C)C(=O)c1ccc2c(c1)OCO2 | 0.97
COCCNC(=O)C[C@@H]1CC[C@@H](NS(=O)(=O)c2ccc(C)cc2)[C@H](CO)O1 | 0.95
CCOC(=O)CSc1nc(=O)cc(C)[nH]1 | 0.952
Cc1cc(C)n(C)c(=O)c1C(=O)O | 0.903
OC[C@@H](O)CN1CCN(c2ccccc2)CC1 | 0.898
C[C@H]1CN([C@@H](C)CO)C(=O)c2cc(C#Cc3ccccc3F)cnc2O[C@H]1CN(C)S(=O)(=O)c1ccccc1 | 0.96
C[C@@H](O)C#Cc1ccc2c(c1)O[C@@H](CN(C)C(=O)Cc1ccccn1)[C@@H](C)CN([C@@H](C)CO)S2(=O)=O | 0.983
Cc1ccc(S(=O)(=O)N2C[C@H](O)COC[C@H]3O[C@@H](CC(=O)NCCN4CCCCC4)CC[C@@H]32)cc1 | 1.02
Cc1ccc(S[C@]2(C(=O)NCCCN(C)C)CC(=O)N(Cc3ccccc3C(F)(F)F)[C@@H]2c2ccc(CO)cc2I)cc1 | 0.875
NNC(=O)c1ccncc1 | 0.885
O=C(C[C@@H]1CC[C@@H](NC(=O)CN2CCOCC2)[C@H](CO)O1)NCCc1ccncc1 | 1.01
O=C(Nc1ccc2c(c1)[C@H]1C[C@H](CC(=O)N3CCc4ccccc4C3)O[C@@H](CO)[C@H]1O2)C1CCOCC1 | 1.01
NS(=O)(=O)Cc1ccccc1F | 0.891
O=C(NC1CC1)c1n[nH]c(=O)c2ccccc12 | 1.08
NCCc1c(C(=O)O)[nH]c2ccc(Br)cc12 | 0.922
O=C(/C=N/O)Nc1ccccc1C(=O)O | 0.906

SMILES | relative growth
CC1(C)CC2C1CCC1(C)OC1CCC2(C)O (stereo not drawn) | 1.05
COc1ccc([C@H]([C@H](Cc2ccccc2)OC(C)=O)N(C/C=C/[C@@H](OC(C)=O)c2ccccc2)[C@@H](Cc2ccccc2)C(OC)OC)cc1 | 1.27
CC1=CCc2c(cc3oc(C)cc(=O)c3c2O)OC1 | 0.972
N#CC1C(=O)NC(=O)N=C1Nc1ccccc1 (stereo not drawn) | 1.09
COc1ccc([C@@H]([C@H](Cc2ccccc2)OC(C)=O)N2C[C@H](CC(=O)N(C)C)[C@@H]3C(=NO[C@H]3c3ccccc3)[C@@H]2Cc2ccccc2)cc1 | 1.06
Nc1ncn(C[C@@H](O)CO)c2nc(Br)nc1-2 | 0.94
O=C(CN1CCOCC1)NCC[C@H]1CC[C@@H](NC(=O)Cc2ccccn2)[C@H](CO)O1 | 1.15
COc1ccc(NC(=O)N(C)C[C@H]2Oc3ncc(C#CCN(C)C)cc3C(=O)N([C@@H](C)CO)C[C@H]2C)cc1 | 1.09
Cl.N=C(N)NCCCC(N)C(=O)O (stereo not drawn) | 1.07
CCN(CC)CCNC(=O)c1ccc(N)cc1.Cl | 1.22
C=CCOC(=O)[C@@H]1[C@H]2C(=O)O[C@H](c3ccccc3)[C@H](c3ccccc3)N2[C@H](c2ccc(OCCOC(=O)[C@@H]3C[C@@H]4C(=O)N[C@@H](Cc5ccccc5)C(=O)N4[C@@H]3c3ccc(O)cc3)cc2)[C@@]12C(=O)Nc1ccccc12 | 0.962
COc1nn(C)cc1C(=O)NC1=NCCS1 | 0.808
CC(C)NC(=O)NCC[C@H]1CC[C@H](NC(=O)CN(C)C)[C@H](CO)O1 | 1.04
Cc1ccc(CNS(=O)(=O)N(C)C)cc1 | 0.912
CO[C@H](CN(C)C(=O)c1ccc2c(c1)OCO2)[C@@H](C)CN([C@@H](C)CO)S(=O)(=O)c1ccc(C)cc1 | 1.19
O=C(C[C@H]1CC[C@@H]2[C@H](COC[C@@H](O)CN2C(=O)c2ccccc2F)O1)N1CCN(c2ccccc2)CC1 | 0.78
Cc1ccccc1-n1cc[nH]c1=S | 0.989
O=C(C[C@H]1CC[C@H](NC(=O)CN2CCOCC2)[C@@H](CO)O1)NCCc1ccncc1 | 1.02
O=C(O)c1cccnc1 | 1.02
NC(=O)NCC#Cc1ccc2c(c1)[C@]1(C(=O)N2)[C@H](C(=O)Nc2nc3ccccc3s2)[C@H]2C(=O)O[C@H](c3ccccc3)[C@H](c3ccccc3)N2[C@@H]1c1ccccc1OCCO | 0.963
C[C@H]1C[C@@H]2[C@@H](C[C@@H]1C)N[C@@H]1C(=O)NC(=O)N[C@H]1N2C[C@H](O)[C@H](O)[C@H](O)CO | 0.953

SMILES | relative growth
CC1=CC(C)(C)N(C(=O)/C=C/c2ccccc2)c2ccc(C)cc21 | 1.37
Cc1cccc(N(C)C(=S)Oc2ccc3ccccc3c2)c1 | 1.16
Cn1cnc(S(=O)(=O)N[C@H]2C=C[C@H](CC(=O)Nc3ccccc3)O[C@@H]2CO)c1 | 1.05
COCCNCCn1cnc2c1c(=O)[nH]c(=O)n2C | 1.18
Cl.Nc1c2c(nc3ccccc13)CCCC2 | 0.76
CN1CCN(C(=O)C[C@@H]2C=C[C@@H](NS(=O)(=O)c3cccc(F)c3)[C@@H](CO)O2)CC1 | 0.984
COc1ccc(-c2ccc3cc(C(=O)O)ccc3c2)cc1C12CC3CC(CC(C3)C1)C2 | 0.864
CCN1CCCC1CNC(=O)c1cc(S(N)(=O)=O)ccc1OC (stereo not drawn) | 0.912
c1cc(CNCCN2CCOCC2)ccn1 | 1.01
O=C(NC(=O)N1CCOCC1)c1ccc(S(=O)(=O)N2CCOCC2)cc1 | 0.932
CC[C@H]1CN(C)N1C(=O)[C@H]1CCCO1 | 0.959
CC(C)[Si](C#C[Si](C(C)C)(C(C)C)C(C)C)(O[C@H](C)c1cn([C@H](C)c2ccccc2)nn1)C(C)C | 0.901
CC(C)CC#Cc1ccc2c(c1)O[C@H](CN(C)S(=O)(=O)c1cccc(F)c1)[C@H](C)CN([C@H](C)CO)S2(=O)=O | 1.45
O=C(CCC1CCCCC1)NCCC12CC3CC(CC(C3)C1)C2 | 1.12
CC(C)=CCc1c(O)cc2oc(C)cc(=O)c2c1O | 0.832
COCC(=O)Nc1ccc2c(c1)C(=O)N(C)C[C@H](OC)[C@H](C)CN(C(=O)Cc1cccnc1)[C@H](C)CO2 | 0.975
COc1cccc(S(=O)(=O)N[C@H]2C=C[C@H](CC(=O)NC3CCC3)O[C@H]2CO)c1 | 1.02
CCc1ccc(Nc2c3c(nc4ccccc24)CCCC3)cc1 | 0.521
CN1C(C(=O)Nc2ccccn2)=C(O)c2sc(Cl)cc2S1(=O)=O | 1.11
NC1(CC(=O)O)CCN(Cc2ccccc2)CC1 | 0.945

Source: published antibiotic growth screens (doi:10.1038/s41589-023-01349-8)
